The values below come from patent US11629201B2, “PSMA-binding agents and uses thereof” (ITM Isotope Technologies Munich SE, priority 2017, dated 2023).

Structures are written as SMILES.

The subject of data set [1] is human plasma proteins. The experiment in a line: Ultrafiltration assay, binding to human plasma proteins. The note with it: different dilutions of human plasma.
Data set [2] concerns PC-3 PIP/flu tumor-bearing mice. As to the kind of experiment: Biodistribution studies in PC-3 PIP/flu tumor-bearing mice.

`Cc1ccc(CCCC(=O)NCCCCC(NC(=O)CN2CCN(CC(=O)O)CCN(CC(=O)O)CCN(CC(=O)O)CC2)C(=O)NCC2CCC(C(=O)NC(Cc3ccc4ccccc4c3)C(=O)NCCCCC(NC(=O)NC(CCC(=O)O)C(=O)O)C(=O)O)CC2)cc1` (centres unmarked) [^64Cu-PSMA-ALB-06, metal not drawn]: the “half-maximum binding (B50), [HSA]-to-[radioligand] ratio” value in data set [1] is listed as 770.
`Cc1ccc(CCCC(=O)NCCCCC(NC(=O)CN2CCN(CC(=O)O)CCN(CC(=O)O)CCN(CC(=O)O)CC2)C(=O)NCC2CCC(C(=O)NC(Cc3ccc4ccccc4c3)C(=O)NCCCCC(NC(=O)NC(CCC(=O)O)C(=O)O)C(=O)O)CC2)cc1` (centres unmarked) [^177Lu-PSMA-ALB-06, metal not drawn]: in data set [2] (4 h p.i.), the Heart was 5.41 ± 0.82 % IA/g, the Kidneys turned out to be 18.9 ± 0.77 % IA/g, the Liver turned out to be 3.45 ± 1.50 % IA/g and the “PC-3 flu Tumor” value is 3.16 ± 0.39 % IA/g. The compound further had a Spleen in data set [2] (4 h p.i.) of 3.14 ± 0.29 % IA/g. In data set [2] (24 h p.i.), this compound returned a Kidneys of 10.5 ± 2.13 % IA/g, a Liver of 0.50 ± 0.11 % IA/g and a Salivary glands of 0.52 ± 0.11 % IA/g.
In data set [2] (4 h p.i.), `Cc1ccc(CCCC(=O)NCCCCC(NC(=O)CN2CCN(CC(=O)O)CCN(CC(=O)O)CCN(CC(=O)O)CC2)C(=O)NCC2CCC(C(=O)NC(Cc3ccc4ccccc4c3)C(=O)NCCCCC(NC(=O)NC(CCC(=O)O)C(=O)O)C(=O)O)CC2)cc1` (centres unmarked) [44Sc-PSMA-ALB-06, metal not drawn] displayed a Liver of 3.51 ± 0.44 % IA/g and a Stomach of 1.91 ± 0.16 % IA/g. Further, in data set [2] (6 h p.i.), the Heart turned out to be 5.17 ± 0.17 % IA/g, the Muscle worked out at 1.83 ± 0.07 % IA/g and the Stomach was found to be 1.98 ± 0.26 % IA/g.
